# Test results: published antibiotic growth screens (doi:10.1038/s41589-023-01349-8)
# The list shows a part of the results.
# System: A. baumannii ATCC 17978
# Experiment: relative growth (fraction of control); higher = less inhibition
# Settings: 50 µM
row,Compound,relative growth
1,O=C(C[C@@H]1CC[C@@H]2[C@H](COC[C@H](O)CN2C(=O)c2ccc3c(c2)OCO3)O1)NC1Cc2ccccc2C1,1.1
2,C[C@@H]1CC[C@H]2C(C)(C)C3CC12CC[C@@]3(C)O (stereo partly drawn),1.01
3,C[C@H](CO)N1C[C@H](C)[C@H](CN(C)CC2CCOCC2)Oc2cc(C#Cc3cccnc3)ccc2S1(=O)=O,0.985
4,CNC(=O)C[C@@H]1CC[C@H]2[C@@H](COC[C@H](O)CN2C(=O)c2ccc3c(c2)OCO3)O1,1.07
5,O=C(C[C@@H]1CC[C@@H](NC(=O)CN2CCOCC2)[C@@H](CO)O1)NCCc1ccccc1,1.08
6,Cc1cc(=O)[nH]c(=S)[nH]1,1.16
7,COCC(=O)Nc1ccc2c(c1)C(=O)N(C)C[C@H](OC)[C@H](C)CN(Cc1cccc(F)c1)[C@H](C)CO2,0.998
8,COc1cc(C)c(C(=O)O)c(OC(C)=O)c1,1.25
9,CN1C(=O)COc2cc(N)ccc21,0.984
10,CC(=O)O[C@@H]1[C@H](OC(C)=O)N(C(C)=O)C(=O)N1C(C)=O,1.04
11,CCN(CCCc1ccccc1)CCCc1ccccc1.O=C(O)CC(O)(CC(=O)O)C(=O)O,0.995
12,CN(C)Cc1cn(CC[C@@H]2CC[C@H](NC(=O)Cc3cccnc3)[C@@H](CO)O2)nn1,1.07
13,Cc1ncc(C[n+]2csc(CCO)c2C)c(N)n1.Cl.[Cl-],0.909
14,Nc1ncnc2c1c(I)cn2[C@H]1O[C@@H](CO)[C@@H](O)[C@@H]1O,0.664
15,CN(C)CCCCNC(=O)[C@H]1C[C@H]2C(=O)N[C@@H](CCCCN(C)C)C(=O)N2[C@H]1c1cccc(OCCO)c1,0.92
16,O=C(CCCCCCCC(=O)NCCO)NCCO,1.17
17,COC(=O)C[C@H]1CC[C@@H](N)[C@@H](CO)O1,0.898
18,COCCNC(=O)C[C@@H]1CC[C@H](NS(=O)(=O)c2ccc(C)cc2)[C@H](CO)O1,1.06
19,Clc1ccc(-c2csc(-c3ccc4c(c3)CCO4)n2)s1,1.08
20,Cc1ccc(S(=O)(=O)C[C@H](C)N2CCOCC2)c(S(=O)(=O)C[C@@H](C)N2CCOCC2)c1,1.09
21,OC[C@@H](O)[C@H]1O[C@H](c2ccccc2)OC[C@@H]1O,0.86
22,COc1ccc(CN2CCN(C(c3ccc(F)cc3)c3ccc(F)cc3)CC2)c(OC)c1OC.Cl,1.17
23,CC(=O)OCC(=O)[C@@]1(O)[C@H](C)CC2C3CCC4=CC(=O)C=C[C@]4(C)[C@@]3(F)[C@@H](O)C[C@@]21C (stereo partly drawn),0.944
24,COc1cccc(C#Cc2ccc3c(c2)O[C@@H](CN(C)C(=O)CN2CCOCC2)[C@H](C)CN([C@@H](C)CO)S3(=O)=O)c1,0.681
25,COc1ccc([C@@H]([C@H](Cc2ccccc2)OC(C)=O)N2C[C@@H](CC(=O)N(C)C)[C@H]3[C@@H]([C@@H]2Cc2ccccc2)N(C)O[C@@H]3c2ccccc2)cc1,1.2
26,COc1ccc(/C=C/C(=O)Nc2ccccc2C(=O)O)cc1OC,1.08
27,COCC(=O)Nc1ccc2c(c1)C(=O)N(C)C[C@H](OC)[C@@H](C)CN(Cc1ccccc1F)[C@H](C)CO2,0.908

row,Compound,relative growth
1,COCCOC(=O)N1C(=O)[C@@]2(c3ccccc31)[C@H](c1ccc(OCCO)cc1)N1[C@H](c3ccccc3)[C@H](c3ccccc3)OC(=O)[C@H]1[C@@H]2C(=O)Nc1nc2ccccc2s1,0.902
2,COc1ccc(S(=O)(=O)N2C[C@H](O)COC[C@@H]3O[C@H](CC(=O)N[C@H]4CCN(Cc5ccccc5)C4)CC[C@H]32)cc1,1.09
3,C=CC[C@@H](CC(=O)N[C@@H](CO)Cc1ccccc1)C(=O)NC[C@H](OC(=O)[C@@H](CC=C)Cc1ccc(F)cc1)c1ccccc1,0.844
4,Nc1ccc(S(=O)(=O)[N-]c2cnc3ccccc3n2)cc1.[Na+],1
5,C=C(C)[C@@H]1CC[C@]2(CO)CC[C@]3(C)[C@H](CCC4[C@@]5(C)CC[C@H](O)C(C)(C)C5CC[C@]43C)C12 (stereo partly drawn),0.818
6,Oc1ccc(/C=C/c2cc(O)cc(O)c2)cc1,1.18
7,COCC#Cc1ccc2c(c1)O[C@H](CN(C)S(=O)(=O)c1cccc(OC)c1)[C@H](C)CN([C@@H](C)CO)S2(=O)=O,1.05
8,O[C@@H]1[C@@H](O)[C@H](OC/C=C/c2ccccc2)O[C@H](CO[C@@H]2OC[C@@H](O)[C@@H](O)[C@@H]2O)[C@H]1O,1.08
9,COc1cc2c(cc1OC)C1Cc3ccc(OC)c(OC)c3CN1CC2 (stereo not drawn),0.914
10,CC(=O)N[C@H]1[C@H]([C@H](O)[C@H](O)CO)OC(C(=O)O)=C[C@@H]1NC(=N)N,0.909
11,CN(C)CCOC(=O)C(c1ccccc1)C1(O)CCCC1.Cl (stereo not drawn),1.09
12,CC1(C)C2CCC1(C)C(O)C2 (stereo not drawn),0.881
13,COc1ccc(-n2cc(C(=O)NO)nn2)cc1,1.12
14,O=C(Nc1cccc2cccnc12)[C@H]1[C@@H](c2ccc(Br)cc2)CC(=O)N1C(=O)OCc1ccccc1,1.19
15,CC(C)CC#Cc1ccc2c(c1)O[C@@H](CN(C)CC1CCOCC1)[C@@H](C)CN([C@H](C)CO)S2(=O)=O,0.793
16,COCC(=O)N1C[C@H](C)[C@@H](OC)CN(C)C(=O)c2cc(NC(=O)Nc3cccc(F)c3)ccc2OC[C@H]1C,1.01
17,NCC[C@@H]1CC[C@H](NC(=O)c2ccccc2F)[C@H](CO)O1,1.02
18,CN(N=O)C(=O)N[C@@H]1[C@@H](O)[C@H](O)[C@@H](CO)O[C@@H]1O,0.91
19,COc1cccc(S(=O)(=O)Nc2ccc3c(c2)[C@@H]2C[C@@H](CC(=O)NCCc4ccccc4)O[C@@H](CO)[C@@H]2O3)c1,0.784
20,O=C(C[C@H]1CC[C@H]2[C@@H](COC[C@H](O)CN2Cc2cc(F)ccc2F)O1)N[C@@H]1CCN(Cc2ccccc2)C1,0.943
21,C=C(C)CNc1nc(-c2ccccc2)c(-c2ccccc2)s1,1.28
22,CCC(=O)N1CCC(C(=O)O)CC1,0.9
23,Cc1c(N(C)C)c(=O)n(-c2ccccc2)n1C,1.12
24,Oc1c(Cl)cc(Cl)c(Cl)c1Cc1c(O)c(Cl)cc(Cl)c1Cl,0.26
25,CN1CCN(C(=O)C[C@H]2CC[C@H]3[C@@H](COC[C@H](O)CN3C(=O)C3CC3)O2)CC1,0.851
26,COc1ccccc1C#Cc1cnc2c(c1)C(=O)N([C@H](C)CO)C[C@H](C)[C@@H](CN(C)C(=O)CC1CC1)O2,0.831
